{"source": "patent US20240083851A1", "about": "(priority 2020, published 2024)", "tested_on": "human MSCs", "test": "Osteocytic differentiation of MSCs by LAD (Alizarin Red and Von Kossa staining)", "type": "cell-based", "details": "LAD alone 0.1 μM daily, 3 weeks, like OIM positive control"}
{"compound": "CCN1C[C@]2(OC(=O)c3ccccc3NC(C)=O)CC[C@H](OC)C34C1C(C[C@@H]32)C(=O)C[C@H](OC)[C@H]1C[C@@H]4C(=O)[C@H]1OC", "note": "[LAD, (3S,6S,7S,9S,11S,16S)-1-ethyl-6,9,11-trimethoxy-8,13-dioxododecahydro-2H-3,6a,14-(epiethane[1,1,2]triyl)-7,10-methanocyclodeca[b]azocin-3(4H)-yl 2-acetaminobenzoate]", "values": [{"measurement": "calcium production (Alizarin Red)", "value": "induced"}, {"measurement": "mineral production (Von Kossa)", "value": "induced"}]}
